Measurements: US20210355212A1 (NOVELTY NOBILITY, published 2021)

Sequences of proteins named here, by UniProt entry; tags and fusion partners are left off. A line that says so, or that is headed by a name, gives the form on record, which may keep a tag or linker.
UniProt P10721, other isoform, or with tags, fused parts or gaps limits assumed: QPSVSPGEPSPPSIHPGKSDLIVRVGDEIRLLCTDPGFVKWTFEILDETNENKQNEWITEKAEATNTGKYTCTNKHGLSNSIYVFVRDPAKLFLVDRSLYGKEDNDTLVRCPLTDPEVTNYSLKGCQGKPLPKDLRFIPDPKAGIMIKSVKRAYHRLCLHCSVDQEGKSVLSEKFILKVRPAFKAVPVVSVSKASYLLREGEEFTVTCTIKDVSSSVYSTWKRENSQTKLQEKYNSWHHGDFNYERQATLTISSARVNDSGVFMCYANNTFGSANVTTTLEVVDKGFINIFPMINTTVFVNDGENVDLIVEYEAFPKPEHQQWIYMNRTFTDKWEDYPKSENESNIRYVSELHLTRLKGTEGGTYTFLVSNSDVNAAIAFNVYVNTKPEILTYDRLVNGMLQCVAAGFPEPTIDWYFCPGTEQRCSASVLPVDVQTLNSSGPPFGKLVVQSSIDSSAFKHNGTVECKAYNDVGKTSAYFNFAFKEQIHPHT

Target: T1, human C-KIT (elabscience, PKSH030939) (human, UniProt P10721-2 26-516, limits assumed)
T1 construct: Bought recombinant protein; also called recombinant C-KIT protein (cat #PKSH030939); C-KIT protein used as an antigen
Experiment: SPR (Reichert SR7500DC), C-KIT fixed on a PEG chip, 2G4 antibody flowed by concentration
Method: In order to confirm the C-KIT binding ability of the 2G4 antibody, SPR (Surface Plasmon Resonance) was performed. Using SR7500DC (Reichert, USA), 20 μg of human C-KIT (elabscience, PKSH030939) used for antibody preparation. 20 μg of mouse C-KIT (SB, Lot #LC05DE2304), and rat C-KIT (SB, Lot #LC06SE1787) 20 μg was fixed on a PEG (Reichert, USA) chip. Thereafter, after flowing 2G4 antibody by concentration, the KD value, which is the affinity for C-KIT, was analyzed using the Scrubber2 program. The KD value is obtained by dividing kd by ka, and the lower the value means the greater the binding ability to the target.

Kd: ~2.82 pM
B1: 2G4 antibody (antibody, V domains shown)
VH: QVQLVESGGGVVQPGRSLRLSCAASGFTFSRYGMHWVRQAPGKGLEWVAVIWYDGTNKDYTDSVRGRFTISRDNSKNTLYLQMNSLRAEDTAVYYCAREDWAEAFDMWGQGTTVTVSS
VL: not shown
